Literature values in patent US20250325690A1, “ANTIBODY-DRUG CONJUGATE WITH TWO TYPES OF DRUG-LINKER CONJUGATES ON SINGLE ANTIBODY” (priority 2022, published 2025).

Columns and labels:
[1] = 0.8 mg/kg to 8.0 mg/kg once every three weeks; cited from earlier work
[2] = human, in vivo; cited from earlier work
[3] = human, in vivo; cited from earlier work; remark: listed apart in the source

Enhertu
dose-limiting toxicity [1]: No dose-limiting toxicity was observed
dose reduction caused by adverse reactions, patients [2]: 23.4%
patients with severe inflammatory side effects [3]: 10-15%
